Laboratory results reported in paper PMC8157854, “Radiosynthesis and Evaluation of Talazoparib and Its Derivatives as PARP-1-Targeting Agents” (Biomedicines, 2021).

Protein sequences, listed by entry. Tags and fused reporters are not part of them.
UniProt P09874, whole entry: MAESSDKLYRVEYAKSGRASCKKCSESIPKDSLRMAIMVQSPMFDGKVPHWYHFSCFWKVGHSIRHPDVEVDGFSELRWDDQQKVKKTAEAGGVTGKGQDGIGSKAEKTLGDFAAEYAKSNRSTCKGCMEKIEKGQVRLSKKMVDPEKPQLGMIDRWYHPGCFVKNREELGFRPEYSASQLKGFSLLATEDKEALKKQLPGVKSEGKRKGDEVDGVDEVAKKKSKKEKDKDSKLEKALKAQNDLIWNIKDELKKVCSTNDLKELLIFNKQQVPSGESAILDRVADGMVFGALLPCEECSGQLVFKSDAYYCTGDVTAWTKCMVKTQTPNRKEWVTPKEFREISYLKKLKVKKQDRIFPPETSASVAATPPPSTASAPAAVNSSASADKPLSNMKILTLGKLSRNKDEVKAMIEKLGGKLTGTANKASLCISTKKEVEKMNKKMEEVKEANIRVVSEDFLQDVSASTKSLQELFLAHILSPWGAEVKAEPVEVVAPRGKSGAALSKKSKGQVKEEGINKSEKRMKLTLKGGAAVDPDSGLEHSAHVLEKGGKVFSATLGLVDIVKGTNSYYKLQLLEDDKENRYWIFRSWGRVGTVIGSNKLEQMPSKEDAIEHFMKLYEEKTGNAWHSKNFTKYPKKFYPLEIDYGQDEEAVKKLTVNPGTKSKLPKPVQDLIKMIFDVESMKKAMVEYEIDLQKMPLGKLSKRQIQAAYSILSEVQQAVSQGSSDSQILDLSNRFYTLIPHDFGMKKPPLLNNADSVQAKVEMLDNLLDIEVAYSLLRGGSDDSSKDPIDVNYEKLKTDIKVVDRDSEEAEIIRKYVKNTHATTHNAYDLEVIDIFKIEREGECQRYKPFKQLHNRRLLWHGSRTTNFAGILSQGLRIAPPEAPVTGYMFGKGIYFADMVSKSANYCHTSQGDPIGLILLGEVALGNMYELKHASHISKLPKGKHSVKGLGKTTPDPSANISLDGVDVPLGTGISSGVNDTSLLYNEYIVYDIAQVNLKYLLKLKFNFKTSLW

Biological target: PARP-1 (Homo sapiens, UniProt P09874)
Test: Competitive binding assay with [3H]WC-DZ in U251MG cells
Details: competitive binding vs [3H]WC-DZ in U251MG cells; Mean ± SEM, n = 3

Structure (SMILES) | pseudoHill coefficient n′H
Cn1ncnc1[C@H]1c2n[nH]c(=O)c3cc(F)cc(c23)N[C@@H]1c1ccc(F)cc1 [3a″, (8S,9R)-5-Fluoro-8-(4-fluorophenyl)-9-(1-methyl-1H-1,2,4-triazol-5-yl)-2,7,8,9-tetrahydro-3H-pyrido[4,3,2-de]phthalazin-3-one] | 0.76 ± 0.13
Cn1ncnc1C1c2n[nH]c(=O)c3cc(F)cc(c23)NC1c1ccc(F)cc1 (centres unmarked) [Compound 3a] | 1.00 ± 0.07
